We go through one compound from ChEMBL document CHEMBL1157008, “Discovery of 2-{4-[(3S)-piperidin-3-yl]phenyl}-2H-indazole-7-carboxamide (MK-4827): a novel oral poly(ADP-ribose)polymerase (PARP) inhibitor efficacious in BRCA-1 and -2 mutant tumors” (J Med Chem, 2009).

Sequences of proteins named here, by UniProt entry; tags and fusion partners are left off. A change or cut given only in a name is not applied to a line headed by its entry.
UniProt Q9UKK3: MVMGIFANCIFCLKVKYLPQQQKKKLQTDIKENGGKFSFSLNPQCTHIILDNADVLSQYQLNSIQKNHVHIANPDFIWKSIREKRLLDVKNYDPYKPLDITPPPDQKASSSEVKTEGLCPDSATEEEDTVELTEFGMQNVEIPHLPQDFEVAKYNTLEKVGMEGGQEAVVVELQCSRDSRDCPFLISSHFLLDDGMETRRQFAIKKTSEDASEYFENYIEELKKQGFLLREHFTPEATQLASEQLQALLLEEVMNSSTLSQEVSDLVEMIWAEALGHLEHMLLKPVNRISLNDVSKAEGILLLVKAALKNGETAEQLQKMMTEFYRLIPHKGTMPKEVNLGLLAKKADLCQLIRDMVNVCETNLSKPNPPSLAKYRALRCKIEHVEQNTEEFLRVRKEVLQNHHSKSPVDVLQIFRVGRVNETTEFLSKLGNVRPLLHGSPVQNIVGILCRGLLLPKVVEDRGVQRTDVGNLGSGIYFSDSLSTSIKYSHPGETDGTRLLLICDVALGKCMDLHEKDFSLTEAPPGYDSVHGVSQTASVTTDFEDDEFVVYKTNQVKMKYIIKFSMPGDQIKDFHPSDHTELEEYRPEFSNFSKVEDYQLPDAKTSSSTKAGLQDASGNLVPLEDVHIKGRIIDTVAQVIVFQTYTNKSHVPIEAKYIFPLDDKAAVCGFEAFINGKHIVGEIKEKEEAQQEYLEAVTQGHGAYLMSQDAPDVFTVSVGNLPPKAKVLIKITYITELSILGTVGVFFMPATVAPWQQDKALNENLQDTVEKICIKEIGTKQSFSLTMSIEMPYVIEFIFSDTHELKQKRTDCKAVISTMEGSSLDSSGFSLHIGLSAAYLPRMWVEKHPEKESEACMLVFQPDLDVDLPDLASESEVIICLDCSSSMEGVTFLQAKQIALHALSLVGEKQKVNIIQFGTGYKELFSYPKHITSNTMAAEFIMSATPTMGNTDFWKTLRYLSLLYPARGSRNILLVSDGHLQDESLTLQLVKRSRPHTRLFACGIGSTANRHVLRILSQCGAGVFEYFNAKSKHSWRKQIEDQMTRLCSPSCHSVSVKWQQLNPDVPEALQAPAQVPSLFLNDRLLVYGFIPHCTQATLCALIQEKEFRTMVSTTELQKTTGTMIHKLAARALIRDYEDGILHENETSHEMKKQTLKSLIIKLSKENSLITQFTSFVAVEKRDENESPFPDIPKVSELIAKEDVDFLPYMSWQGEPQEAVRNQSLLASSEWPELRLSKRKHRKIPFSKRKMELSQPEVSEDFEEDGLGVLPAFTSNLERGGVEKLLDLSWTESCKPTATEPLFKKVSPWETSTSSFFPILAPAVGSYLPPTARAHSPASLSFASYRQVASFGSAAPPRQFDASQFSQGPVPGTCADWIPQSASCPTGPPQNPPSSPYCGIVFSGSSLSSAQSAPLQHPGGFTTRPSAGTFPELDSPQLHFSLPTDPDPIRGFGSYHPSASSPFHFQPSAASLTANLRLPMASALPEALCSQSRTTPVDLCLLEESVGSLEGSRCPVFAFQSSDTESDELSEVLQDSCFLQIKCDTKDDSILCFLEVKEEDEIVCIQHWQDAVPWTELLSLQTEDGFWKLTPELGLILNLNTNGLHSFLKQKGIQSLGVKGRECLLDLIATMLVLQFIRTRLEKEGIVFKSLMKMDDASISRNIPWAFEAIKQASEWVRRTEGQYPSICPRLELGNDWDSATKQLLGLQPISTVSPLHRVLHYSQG

For orientation: IC50 means the concentration that inhibits the measured activity by half. High values mean weaker potency, low ones greater potency.

SMILES strings stand for the structures.

The target in assay [1] is T1, Poly [ADP-ribose] polymerase tankyrase-1 (Homo sapiens, UniProt O95271).
T1 sequence (O95271 whole entry): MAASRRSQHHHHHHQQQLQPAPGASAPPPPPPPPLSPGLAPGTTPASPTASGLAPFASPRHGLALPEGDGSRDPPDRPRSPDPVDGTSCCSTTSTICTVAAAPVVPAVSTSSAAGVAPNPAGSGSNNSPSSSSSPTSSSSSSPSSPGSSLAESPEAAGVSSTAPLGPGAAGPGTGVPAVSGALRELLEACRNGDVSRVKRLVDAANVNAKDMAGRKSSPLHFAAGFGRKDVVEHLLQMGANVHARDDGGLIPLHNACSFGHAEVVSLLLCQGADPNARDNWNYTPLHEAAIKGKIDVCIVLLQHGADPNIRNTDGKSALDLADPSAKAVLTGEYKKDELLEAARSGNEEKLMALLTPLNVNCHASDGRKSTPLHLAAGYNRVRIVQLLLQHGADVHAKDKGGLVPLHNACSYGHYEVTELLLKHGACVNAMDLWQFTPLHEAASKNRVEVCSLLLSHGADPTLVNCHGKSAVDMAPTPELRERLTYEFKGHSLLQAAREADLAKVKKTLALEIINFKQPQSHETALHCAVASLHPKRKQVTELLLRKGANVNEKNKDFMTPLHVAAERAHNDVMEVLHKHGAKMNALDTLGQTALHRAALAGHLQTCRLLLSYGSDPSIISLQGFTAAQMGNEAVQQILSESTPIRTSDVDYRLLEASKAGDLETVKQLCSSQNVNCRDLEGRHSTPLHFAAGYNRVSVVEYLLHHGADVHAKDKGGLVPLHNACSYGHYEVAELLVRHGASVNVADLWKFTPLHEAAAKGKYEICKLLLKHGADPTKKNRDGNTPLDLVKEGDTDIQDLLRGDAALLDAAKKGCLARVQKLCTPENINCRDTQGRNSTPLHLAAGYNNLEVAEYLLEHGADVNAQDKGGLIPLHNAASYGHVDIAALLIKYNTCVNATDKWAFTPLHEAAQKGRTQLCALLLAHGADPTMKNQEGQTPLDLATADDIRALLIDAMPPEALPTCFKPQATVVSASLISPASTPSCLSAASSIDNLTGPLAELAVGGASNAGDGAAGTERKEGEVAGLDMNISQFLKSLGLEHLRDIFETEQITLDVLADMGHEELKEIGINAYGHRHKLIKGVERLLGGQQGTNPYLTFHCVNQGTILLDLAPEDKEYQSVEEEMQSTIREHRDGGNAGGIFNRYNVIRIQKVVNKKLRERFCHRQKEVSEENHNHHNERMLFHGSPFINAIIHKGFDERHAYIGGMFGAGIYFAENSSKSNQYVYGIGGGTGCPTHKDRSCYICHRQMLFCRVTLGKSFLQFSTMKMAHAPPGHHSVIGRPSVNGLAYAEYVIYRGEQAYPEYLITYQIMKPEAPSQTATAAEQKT

Assay [2] has as its target Protein mono-ADP-ribosyltransferase PARP4 (Homo sapiens, UniProt Q9UKK3).

Turning to `NC(=O)c1cccc2cn(-c3ccc([C@@H]4CCCNC4)cc3)nc12` [NIRAPARIB], the values for the IC50 in assay [1] and in assay [2] were 570 nM and 330 nM, respectively.
